pKi: −log10 of the molar value.

Chains of the proteins cited; added tags and fusions are not shown.
UniProt P28482, whole entry: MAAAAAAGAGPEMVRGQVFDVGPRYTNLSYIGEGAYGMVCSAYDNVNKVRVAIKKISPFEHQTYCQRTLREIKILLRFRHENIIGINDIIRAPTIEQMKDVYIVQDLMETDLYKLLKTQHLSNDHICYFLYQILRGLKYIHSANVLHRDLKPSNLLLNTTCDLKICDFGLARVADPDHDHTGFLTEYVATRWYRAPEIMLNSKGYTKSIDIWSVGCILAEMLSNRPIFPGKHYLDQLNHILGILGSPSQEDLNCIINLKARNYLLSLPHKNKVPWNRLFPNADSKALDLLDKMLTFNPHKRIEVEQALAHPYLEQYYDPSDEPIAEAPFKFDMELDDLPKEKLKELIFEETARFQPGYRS

The results in this text go back to patent US6750239B2, “Pyrazole-derived kinase inhibitors and uses thereof” (Vertex Pharmaceuticals Incorporated, priority 2001, dated 2004).

The target in this test is activated ERK2 (Homo sapiens, UniProt P28482). Briefly: ERK2 inhibition spectrophotometric coupled-enzyme assay. The note with it: read-out: ERK2 Inhibitory Activity (Ki class); activated ERK2 10 nM, 65 μM ATP, 30° C., pH 7.5. The protocol:
Compounds are assayed for the inhibition of ERK2 by a spectrophotometric coupled-enzyme assay (Fox et al (1998) Protein Sci 7, 2249). In this assay, a fixed concentration of activated ERK2 (10 nM) is incubated with various concentrations of the compound in DMSO (2.5%) for 10 min. at 30° C. in 0.1 M HEPES buffer, pH 7.5, containing 10 mM MgCl2, 2.5 mM phosphoenolpyruvate, 200 μM NADH, 150 μg/mL pyruvate kinase, 50 μg/mL lactate dehydrogenase, and 200 μM erktide peptide. The reaction is initiated by the addition of 65 μM ATP. The rate of decrease of absorbance at 340 nm is monitored, which indicates the extent of uninhibited enzyme present in the assay. The IC50 is evaluated from the rate data as a function of inhibitor concentration.
The compound numbers correspond to the compound numbers in Tables 1-3.
In general, pKi refers to the Ki on a negative log10 scale, so that one unit is a factor of ten. For `CC(=O)N[C@H](CO)C(=O)NCc1ccc(-c2cn[nH]c2-c2c[nH]c(C(=O)N[C@H](CO)c3ccc(F)c(Cl)c3)c2)cc1Cl`, the pKi was over 6.00.

As for `CCCCN(CCCC)Cc1cc(Cl)cc(-c2c[nH]nc2-c2c[nH]c(C(=O)N[C@H](CO)c3ccccc3)c2)c1`, the pKi is over 6.00.

Take `CCCCNC(=O)NCc1cc(Cl)cc(-c2c[nH]nc2-c2c[nH]c(C(=O)N[C@H](COC(=O)NCCCC)c3ccccc3)c2)c1`: the pKi is 5.30 to 6.00.

With `CC(=O)NC(CO)C(=O)NCc1ccc(-c2cn[nH]c2-c2c[nH]c(C(=O)NC(CO)c3ccc(F)c(Cl)c3)c2)cc1Cl` (centres unmarked), the pKi was over 6.00.

Turning to `COCCC(=O)NCc1ccc(-c2c[nH]nc2-c2c[nH]c(C(=O)N[C@H](CO)c3ccccc3)c2)cc1Cl`, the pKi was over 6.00.

As to `CCC(=O)NCc1cc(Cl)cc(-c2c[nH]nc2-c2c[nH]c(C(=O)N[C@H](CO)c3ccccc3)c2)c1`, the pKi was over 6.00.

As to `CC(=O)N[C@@H](CO)C(=O)NCc1ccc(-c2c[nH]nc2-c2c[nH]c(C(=O)N[C@H](CO)c3ccc(F)c(Cl)c3)c2)cc1Cl`, the pKi was over 6.00.

For the molecule `CCCCNC(=O)NCc1cc(Cl)cc(-c2c[nH]nc2-c2c[nH]c(C(=O)N[C@H](CO)c3ccccc3)c2)c1`, the pKi is over 6.00.
